The other results are listed elsewhere or left out.

In the assay the test system is A. baumannii ATCC 17978. Kind of assay: relative growth (fraction of control); higher = less inhibition. The following applies: 50 µM.
Regarding `CCCN(CCC)CCc1cccc2c1CC(=O)N2.Cl`, the relative growth was determined as 1.04.

`O=C(C[C@H]1CC[C@H]2[C@@H](COC[C@@H](O)CN2S(=O)(=O)c2ccc(Oc3ccccc3)cc2)O1)NCCN1CCCCC1`: the relative growth is 0.934.

Regarding `O=C(C[C@@H]1C=C[C@H](NS(=O)(=O)c2ccc(F)cc2)[C@H](CO)O1)N1CCC(Cc2ccccc2)CC1`, the relative growth was 0.796.

In turn, `C[C@@H]1CN([C@@H](C)CO)C(=O)c2cc(C#Cc3ccccc3F)cnc2O[C@H]1CN(C)C(=O)c1ccc2c(c1)OCO2` registered a relative growth of 1.05.

In the case of `COc1ccc(CCN2C(=O)[C@@]3(Cc4ccccc42)c2ccccc2C(=O)N(C2CCCCC2)[C@H]3c2ccc(CO)cc2)cc1`, the relative growth was determined as 0.981.

Compound `COc1ccccc1OCCNCC(O)COc1cccc2[nH]c3ccccc3c12.O=P(O)(O)O` (stereo not drawn) returned a relative growth of 1.28.

As to `CCOC(=O)CC(=O)N1CCSC1COc1ccccc1OC` (stereo not drawn), the relative growth was 1.25.

`CC(=O)Oc1ccc(C(c2ccc(OC(C)=O)cc2)c2ccccn2)cc1` registered a relative growth of 0.873.

Turning to `COc1ccc(S(=O)(=O)N(C)C[C@H]2Oc3c(NC(=O)Nc4cccc5ccccc45)cccc3C(=O)N([C@H](C)CO)C[C@H]2C)cc1`, the relative growth stood at 0.955.

`C[C@H](O)C#Cc1ccc2c(c1)O[C@@H](CN(C)C(=O)c1ccccc1)[C@@H](C)CN([C@@H](C)CO)S2(=O)=O` showed a relative growth of 1.06.

Regarding `C[C@@H]1CN([C@@H](C)CO)S(=O)(=O)c2ccc(C#CC3(O)CCCC3)cc2O[C@@H]1CN(C)C(=O)Cc1cccnc1`, the relative growth turned out to be 0.952.

The compound `C/C=C/c1ccc2c(c1)O[C@@H](CN(C)Cc1ccc(C(=O)O)cc1)[C@H](C)CN([C@H](C)CO)S2(=O)=O` came in with a relative growth of 0.976.

Turning to `O=C(N/N=C/[C@H](O)[C@H](O)[C@@H](O)[C@@H](O)CO)c1ccccc1O`, the relative growth was found to be 0.862.

In turn, `O=C(N[C@@H]1CC[C@@H](CCn2cc(C3(O)CCCC3)nn2)O[C@@H]1CO)C1CCOCC1` returned a relative growth of 1.09.

`C[C@@H]1CN([C@@H](C)CO)C(=O)c2cc(C#CCN(C)C)cnc2O[C@@H]1CN(C)C(=O)c1cnccn1` came in with a relative growth of 0.973.

With `C=CC[C@@H](CC(=O)N(CCO)Cc1ccccc1)C(=O)NC[C@H](OC(=O)[C@@H](CC=C)Cc1ccc(F)cc1)c1ccccc1`, the relative growth was 1.17.

For the compound `O=C(C[C@@H]1C[C@H]2c3cc(NS(=O)(=O)c4ccc(F)cc4)ccc3O[C@H]2[C@H](CO)O1)N1CCCCC1`, the relative growth came out at 1.25.

Consider `O=C(O)C[C@@H]1CC[C@@H]2[C@H](COC[C@H](O)CN2S(=O)(=O)c2ccc(F)cc2)O1`, for which the relative growth turned out to be 1.05.

Compound `COC(=O)c1c2oc(c1C(=O)OC)C(=O)N[C@@H](Cc1ccccc1)Cn1cc(nn1)[C@@H](Cc1ccccc1)NC(=O)N[C@H](CO)CC2` yielded a relative growth of 1.23.

For `CCC(=O)NNC(=O)c1cccc(O)c1`, the relative growth turned out to be 1.1.

With `COc1ccccc1CNC(=O)C[C@@H]1CC[C@@H]2[C@H](COC[C@@H](O)CN2C(=O)Nc2ccc(F)cc2)O1`, the relative growth is 1.01.

Compound `Cc1ncc(CO)c(CN)c1O` yielded a relative growth of 1.05.

Take `CCOP(=O)(CC(=O)O[C@H]1[C@@H]2OC(=O)[C@@H](Cc3ccc4ccccc4c3)C/C=C\C[C@H](Cc3ccc4ccccc4c3)C(=O)O[C@H]2[C@@H](OC)O[C@@H]1COC(=O)NCCCCCC(=O)NO)OCC`: the relative growth is 1.07.

The compound `CCCCOc1ccc(C(=O)CCN2CCCCC2)cc1.Cl` showed a relative growth of 0.928.

The compound `Nc1ccc(C(=O)O)c(O)c1` displayed a relative growth of 0.979.

As to `COc1ccc(S(=O)(=O)N[C@H]2C=C[C@@H](CC(=O)N3CCC(Cc4ccccc4)CC3)O[C@@H]2CO)cc1`, the relative growth stood at 1.01.

As for `CC(=O)Nc1ccc(S(=O)(=O)c2ccc(NC(C)=O)cc2)cc1`, the relative growth was determined as 1.12.

On to `NC1CCCC[C@H]1N.O=C1[O][Pt][O]C1=O` (stereo partly drawn), for which the relative growth came to 0.911.

Regarding `O=C(O)c1ccccc1Nc1cccc(C(F)(F)F)c1`, the relative growth came to 0.966.

With `OCCc1ccccc1`, the relative growth was 0.901.

Turning to `O=C(C[C@@H]1CC[C@@H]2[C@H](COC[C@@H](O)CN2Cc2ccccc2F)O1)N[C@@H]1CCN(Cc2ccccc2)C1`, the relative growth was 1.11.

`Cc1cnc2c(c1NCCN(C)C)c(=O)n(C)c(=O)n2C` had a relative growth of 0.964.

Consider `C[C@H]1CN([C@@H](C)CO)C(=O)CCCn2nncc2CO[C@@H]1CN(C)C(=O)Nc1ccc2c(c1)OCO2`, for which the relative growth turned out to be 1.2.

Compound `C[C@H](CO)N1C[C@H](C)[C@@H](CN(C)C(=O)c2ccccc2)Oc2cc(C#CC3(O)CCCC3)ccc2S1(=O)=O` registered a relative growth of 0.971.

As for `CS(=O)(=O)c1ccc(S(C)(=O)=O)s1`, the relative growth worked out at 1.13.

Turning to `Cc1cccc(C)c1OCC(=O)N[C@@H](Cc1ccccc1)[C@@H](O)C[C@H](Cc1ccccc1)NC(=O)[C@H](C(C)C)N1CCCNC1=O`, the relative growth was found to be 1.05.

In turn, `COCC(=O)N1C[C@H](C)[C@H](OC)CN(C)C(=O)c2cc(NC(=O)Nc3ccccc3)ccc2OC[C@H]1C` displayed a relative growth of 1.21.

Turning to `CCc1nn(C)c2c(=O)c(=O)c2n(C)[nH]1`, the relative growth was 1.15.

With `COCC(=O)N1C[C@@H](C)[C@@H](OC)CN(C)C(=O)c2ccc(NC(=O)c3cc(C)on3)cc2OC[C@H]1C`, the relative growth amounted to 1.25.

On to `O=C(NCCO)c1ccc(C(=O)NCCO)cc1`, for which the relative growth was determined as 1.17.

`C[C@H](CO)N1C[C@H](C)[C@@H](CN(C)C(=O)Cc2ccncc2)Oc2cc(C#Cc3ccccc3F)ccc2S1(=O)=O` gave a relative growth of 0.814.

Compound `Clc1ccc(C(c2ccccc2Cl)C(Cl)Cl)cc1` (stereo not drawn) returned a relative growth of 0.859.

In turn, `C=CCOC(=O)[C@H]1[C@@H]2C(=O)O[C@@H](c3ccccc3)[C@@H](c3ccccc3)N2[C@@H](c2ccc(OCCOC(=O)[C@H]3C[C@H]4C(=O)N[C@@H](Cc5ccccc5)C(=O)N4[C@H]3c3cccc(OCCO)c3)cc2)[C@]12C(=O)Nc1ccc(I)cc12` yielded a relative growth of 1.12.

For the compound `COC(=O)/C=c1\sc2n(c1=O)CCN=2`, the relative growth stood at 0.888.

In turn, `C[C@@H]1CN([C@@H](C)CO)S(=O)(=O)c2ccc(-c3ccccc3F)cc2O[C@H]1CN(C)S(C)(=O)=O` returned a relative growth of 0.93.

Compound `CCCNC(=O)N(C)C[C@@H]1Oc2cc(-c3ccc(C)cc3)ccc2S(=O)(=O)N([C@@H](C)CO)C[C@H]1C` had a relative growth of 0.816.

The compound `O=C1N[C@H](Cc2c[nH]c3ccccc23)COC(=O)[C@@H](Cc2ccc(F)cc2)CC=CC[C@@H]1CC(=O)N(CCO)Cc1ccccc1` yielded a relative growth of 0.982.

As for `C[C@H](N[C@@H](CCc1ccccc1)C(=O)O)C(=O)N1Cc2ccccc2C[C@H]1C(=O)O`, the relative growth worked out at 1.19.

For `CN1CCN(C(=O)C[C@@H]2CC[C@@H](NC(=O)Cc3ccccn3)[C@H](CO)O2)CC1`, the relative growth was found to be 0.886.

Compound `O=C(O)[C@H]1NC(=O)[C@@H]1Cc1ccccc1` came in with a relative growth of 1.08.

With `Cc1ccc(S[C@H](C)C(=O)c2ccc(C)c(Cl)c2)cc1`, the relative growth is 1.06.

Regarding `O=C(/C=C/c1ccccc1)c1ccc(O)cc1`, the relative growth was 0.888.

Compound `O=C(O)c1ccc2c(c1)OCO2` displayed a relative growth of 1.11.

In turn, `O=C(CN1CCOCC1)N[C@@H]1CC[C@@H](CCn2cc(C3CC3)nn2)O[C@@H]1CO` yielded a relative growth of 1.02.

In the case of `CN(C)c1nc(SCCO)nc(N(C)C)n1`, the relative growth turned out to be 1.01.

In turn, `Cc1ccc(S[C@]2(C(=O)NC(C)C)CC(=O)N(Cc3ccccc3C(F)(F)F)[C@@H]2c2ccc(CO)cc2)cc1` had a relative growth of 0.9.

Compound `N=C(N=C(N)N)N1N=CC[C@@H]1c1ccccc1` returned a relative growth of 0.946.

`CC(=O)N1CCN(c2ccnc3c2c(=O)n(CC(=O)NC(C)(C)C)c(=O)n3C)CC1` came in with a relative growth of 0.964.

In turn, `C[C@H](CO)N1C[C@H](C)[C@@H](CN(C)C(=O)C2CCOCC2)Oc2cc(-c3ccc(C(=O)N(C)C)cc3)ccc2S1(=O)=O` showed a relative growth of 1.06.

In turn, `C[C@H](CO)N1C[C@H](C)[C@H](CN(C)S(=O)(=O)c2ccc(F)cc2)Oc2cc(Br)ccc2S1(=O)=O` returned a relative growth of 1.1.

In turn, `O=C(CN1CCOCC1)NCC[C@@H]1CC[C@H](NC(=O)c2ccccc2F)[C@@H](CO)O1` registered a relative growth of 1.08.

`Nc1nonc1C(=O)OCC(=O)c1ccccc1` gave a relative growth of 0.902.

As for `CC(C)c1c(C(=O)Nc2ccccc2)c(-c2ccccc2)c(-c2ccc(F)cc2)n1CC[C@@H](O)C[C@@H](O)CC(=O)[O-].[Ca+2]`, the relative growth stood at 1.05.

`O=C(O)CCC(=O)N1CC(=O)Nc2ccccc21` had a relative growth of 0.954.

`Cn1c(=O)[nH]c(=O)c2c1ncn2CCNCc1ccco1` gave a relative growth of 0.975.

The compound `COC(=O)CCCCCCC(=O)Nc1ccc([C@H]2O[C@@H](CSc3nc4ccccc4s3)C[C@H](c3ccccc3)O2)cc1` had a relative growth of 1.11.

In turn, `CC(C)C#Cc1cnc2c(c1)C(=O)N([C@@H](C)CO)C[C@@H](C)[C@@H](CN(C)C(=O)c1ccc3c(c1)OCO3)O2` had a relative growth of 0.995.

For the compound `CCn1c(Cl)nc2c1c(=O)n(C)c(=O)n2C`, the relative growth is 0.925.

`COc1cc(/C=C/C(=O)O)cc(OC)c1O`: the relative growth came out at 0.92.

Take `NCCCS(=O)(=O)O`: the relative growth turned out to be 0.95.

In turn, `O=C(C[C@H]1CC[C@H]2[C@@H](COC[C@H](O)CN2S(=O)(=O)c2ccccc2)O1)NCc1ccc2c(c1)OCO2` came in with a relative growth of 0.957.

For the compound `Cc1ccc(S(=O)(=O)N[C@@H](Cc2ccccc2)C(=O)NCCCn2cc(-c3cccc(/C=C/C(=O)NO)c3)nn2)cc1`, the relative growth was 1.02.

Compound `Cc1ccc(CNC(=S)NCCO)cc1` returned a relative growth of 1.02.

`COC(=O)[C@@H](NC(=O)c1cccc(NC=O)c1O)[C@@H](C)O` came in with a relative growth of 1.03.

For `Nc1nc(/C(=C/CC(=O)O)C(=O)N[C@@H]2C(=O)N3C(C(=O)O)=CCS[C@H]23)cs1`, the relative growth is 0.146.

`CCOC(=O)c1c[nH]c(CC(C)=O)nc1=O` gave a relative growth of 1.01.

Regarding `COC(=O)C[C@H]1C(C)(C)C(=O)[C@@H]2CC3C4=CC(=O)O[C@@H](c5ccoc5)[C@]4(C)CCC3[C@@]1(C)C2=O` (stereo partly drawn), the relative growth stood at 0.992.

In turn, `N#C[C@H](NCCO)c1ccc(F)cc1` displayed a relative growth of 0.929.

As for `C=CC1=C(C)/C(=C/c2[nH]c(Cc3[nH]c(/C=C4\NC(=O)C(C)=C4C=C)c(C)c3CCC(=O)O)c(CCC(=O)O)c2C)NC1=O`, the relative growth was 1.11.

`COc1ccccc1-c1cnc2c(c1)C(=O)N([C@@H](C)CO)C[C@H](C)[C@H](CN(C)C(=O)c1ccncc1)O2` registered a relative growth of 0.991.

For the compound `C[C@@H]1CNS(=O)(=O)CO1`, the relative growth is 1.05.

In turn, `N[C@@H]1CC[C@@H](CCn2cc(-c3ccccn3)nn2)O[C@H]1CO` showed a relative growth of 0.93.

For the compound `C[C@@H]1O[C@@H](O[C@@H]2[C@@H](O)[C@H](C)O[C@@H](OC[C@H]3O[C@@H](Oc4c(-c5ccc(O)cc5)oc5cc(O)cc(O)c5c4=O)[C@H](O)[C@@H](O)[C@H]3O)[C@@H]2O)[C@H](O)[C@H](O)[C@H]1O`, the relative growth was 1.11.

Source of the values: published antibiotic growth screens (doi:10.1038/s41589-023-01349-8).
